# Experimental data published in article PMC11117309.
# Amino acid sequences for entries named in this document (tags omitted). Residues count along the entry.
# UniProt P43220, 24-463: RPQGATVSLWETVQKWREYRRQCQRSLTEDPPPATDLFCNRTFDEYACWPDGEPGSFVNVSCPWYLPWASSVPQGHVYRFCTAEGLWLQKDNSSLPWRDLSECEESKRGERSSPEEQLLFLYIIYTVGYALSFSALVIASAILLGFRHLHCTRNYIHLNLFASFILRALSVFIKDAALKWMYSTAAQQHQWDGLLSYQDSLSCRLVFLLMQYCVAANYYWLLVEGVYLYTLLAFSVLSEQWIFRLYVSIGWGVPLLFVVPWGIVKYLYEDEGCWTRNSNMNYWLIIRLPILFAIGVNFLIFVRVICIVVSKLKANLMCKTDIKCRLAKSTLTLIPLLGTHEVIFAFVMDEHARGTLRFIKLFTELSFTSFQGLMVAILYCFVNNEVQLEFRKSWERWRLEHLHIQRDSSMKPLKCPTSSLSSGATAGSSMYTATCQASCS
# Target: glucagon-like peptide-1 receptor (hGLP-1R) (human) (UniProt P43220)
substance,measurement,value
L-GLP-1 peptide (glucagon-like peptide 1),"HTRF cAMP assay (decrease of the FRET signal) in GLP-1R expressing HEK293 cells, EC50",0.18 nM
